# Marks after values point to notes of the source that are not given here.
# System: wake naive rats
# Assay: cystometry with wake naive rats
# Details: 0.01 mg/kg iv (n=6)
smiles,measurement,value
"CO[C@]12CC[C@@]3(C[C@@H]1[C@](C)(O)C(C)(C)C)[C@H]1Cc4ccc(O)c5c4[C@@]3(CCN1CC1CC1)[C@H]2O5 [buprenorphine, 21-cyclopropyl-7.varies.-[(S)-1-hydroxy-1,2,2-trimethylpropyl]-6,14-endo-e thano-6,7,8,14-tetrahydrooripavine]","BC bladder capacity, change compared to the pre-basis",+3.6%
same,"ICI inter-contraction interval, change compared to the pre-basis",+10.9%
same,"TP threshold pressure, change compared to the pre-basis",+69.9% **
